scFv variants of Ab-95 (light chain) against a SARS-CoV-2 spike peptide

All variants were tested on one target, the spike HR2 peptide PDVDLGDISGINAS (SARS-CoV-2).

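Phage display of a naive human antibody library on the peptide gave the parent. In library AAYL52, one, two or three CDR residues were substituted; doubles and triples were drawn at random. The assay is AlphaSeq: two haploid yeast populations carry antibody and antigen on their surface. Pairs that bind mate more often; barcode pairs of the diploids are counted by sequencing. A regression on co-assayed BCL2-family reference pairs converts the normalised counts of each replicate to an apparent Kd. Each pool was mated in three replicate cultures.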

Parent scFv Ab-95: VH joined to VL by the linker GGGGSGGGGSGGGGS. Changes lie in the light chain CDRs alone.
VH: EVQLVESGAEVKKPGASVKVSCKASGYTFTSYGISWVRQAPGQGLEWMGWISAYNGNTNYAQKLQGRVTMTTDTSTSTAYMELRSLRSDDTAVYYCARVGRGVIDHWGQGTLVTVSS
VL: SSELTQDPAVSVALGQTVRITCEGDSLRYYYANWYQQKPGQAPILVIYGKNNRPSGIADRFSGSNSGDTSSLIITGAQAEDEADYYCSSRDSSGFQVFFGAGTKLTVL

Each variant is given by its three light chain CDRs, as the data file delimits them; those of the parent are EGDSLRYYYAN, GKNNRPS, SSRDSSGFQVF.
Every variant below is changed at Y30 of the VL (sequential numbering).
The Kd shown is the geometric mean over detected replicates; a lower Kd is a better binder.
"nd" means that the variant was in the library but no mating with the target was seen in any replicate; the authors take this as a sign of poor binding, and no number exists.
Empty control strains, which show no peptide, gave a signal in 28% of pairings with library AAYL52; the median was 8.2 µM and 95% of these signals were weaker than 800 nM. No background was subtracted.

- EGDSLRYDYAN / GKNNRPS / DSRDSFGFQVF: 4.8 µM (2 of 3 replicates)
- EGDSCRYTYAN / GKNNRPS / SSRDSSGFQVF: 62 µM (2 of 3 replicates)
- EGDSLRNFYAN / GKNNRPS / SSRDSSGFQVL: 590 nM (3 of 3 replicates)
- EGDSLGYTTAN / GKNNRPS / SSRDSSGFQVF: 25 nM (3 of 3 replicates)
- EGDSLRYHYAA / GKNNRPS / SSRYSSGFQVF: 5.0 µM (3 of 3 replicates)
- EGDSLHYQYAN / GKNNRPS / SSRDSSGFQVD: 31 nM (3 of 3 replicates)
- EGDSLRYWYAN / PKNNRPS / SSRDSSGFQVF: nd (0 of 3 replicates)
- EGDSPRYTYMN / GKNNRPS / SSRDSSGFQVF: 160 nM (3 of 3 replicates)
- EGDSLRYKYAN / GKNNRPS / TSRDSSGFQVD: 290 nM (3 of 3 replicates)
- EGDSLRYIYAN / GKNNRPG / SSRDSSGFQVF: 490 nM (3 of 3 replicates)
- EGDSLRYWYAN / GKNNRPS / SSRDWSGFTVF: 11 µM (1 of 3 replicates)
- EGFSLRYSYAN / GKNNRWS / SSRDSSGFQVF: 530 nM (3 of 3 replicates)
- EGDSLRYTYAN / GKNNVPP / SSRDSSGFQVF: 13 nM (3 of 3 replicates)
- EGDSLRYGYAN / GKNNRPS / SDRDSFGFQVF: 480 nM (3 of 3 replicates)
- DGDNLRYTYAN / GKNNRPS / SSRDSSGFQVF: 240 nM (3 of 3 replicates)
- EGDSLRPLYAN / GKNNRPS / SCRDSSGFQVF: 150 nM (3 of 3 replicates)
- EGDSLRYHHAN / GKNNRPS / SSRVSSGFQVF: 300 nM (3 of 3 replicates)
- EGDSLRDQYAN / GKNNRPS / SSRDSSGFQVF: 910 pM (3 of 3 replicates)
- EGDSLRYVYAN / GKNNHPS / GSRDSSGFQVF: 4.6 µM (1 of 3 replicates)
- EGDSLRYEEAN / GRNNRPS / SSRDSSGFQVF: 74 nM (3 of 3 replicates)
- EGDSLRYMYAN / GKNTRPS / SLRDSSGFQVF: 230 nM (3 of 3 replicates)
- EGDSLRYWYIN / GINNRPS / SSRDSSGFQVF: 3.0 µM (3 of 3 replicates)
- EGDSLRYWYAN / GKNNPPS / SSRDSSGFQVF: 96 µM (2 of 3 replicates)
- EGDSLRYHYAN / GKRMRPS / SSRDSSGFQVF: 270 nM (3 of 3 replicates)
- EGDSLRYLYAR / GKNNRPS / SSRDSSIFQVF: 61 µM (1 of 3 replicates)
- EDDSLRYKYAN / GKPNRPS / SSRDSSGFQVF: 1.8 µM (1 of 3 replicates)
- EGDSLRYWYAN / GKNNRPS / SSRDSSGFAVF: 310 nM (3 of 3 replicates)
- EGDSLRYMYAN / GKNNRPS / SSRDSSVFQTF: 18 µM (1 of 3 replicates)
- EGLSLRYPYAN / GKNNRPS / SSRDHSGFQVF: 180 nM (3 of 3 replicates)
- EGDSTRYDYAN / GKNNRPS / WSRDSSGFQVF: 11 µM (2 of 3 replicates)
- EGDMLRYPYAN / VKNNRPS / SSRDSSGFQVF: 33 µM (2 of 3 replicates)
- EGDSLRYRYAN / GKNFRPS / CSRDSSGFQVF: 350 nM (3 of 3 replicates)
- EGDSNRYKYAN / GKNNRPS / SSRDSSGFQVF: 200 nM (3 of 3 replicates)
- EGDSLRYSEAN / GKNNRPS / SSRISSGFQVF: 48 nM (3 of 3 replicates)
- EGDSLRYRYAN / GKKMRPS / SSRDSSGFQVF: 230 nM (3 of 3 replicates)
- EGDSLRYLYAN / GKNNRPS / SSRDSSGMCVF: 670 nM (3 of 3 replicates)
- EGDSLRYRCAN / GKNNRPF / SSRDSSGFQVF: 21 nM (3 of 3 replicates)
- EGDSLRYHYAN / GKNNRPS / HSRDSYGFQVF: 3.5 µM (2 of 3 replicates)
- EGDSLRYFYAN / GKNNRPH / SGRDSSGFQVF: 2.9 µM (3 of 3 replicates)
- EGDSLRYSYAN / GKNNRLS / SSRVSSGFQVF: 170 nM (3 of 3 replicates)
- EGDSLRYAYAN / GKNWRPS / SSRTSSGFQVF: 39 nM (3 of 3 replicates)
- EGDSLCYVYAN / GCNNRPS / SSRDSSGFQVF: 2.4 µM (1 of 3 replicates)
- EGDSLRYKYAN / GKNNRPS / SSRDSSMFQVF: 16 nM (3 of 3 replicates)
- EADSLRYPYAN / GKNNRPS / SSRDSSGFRVF: 94 nM (3 of 3 replicates)
- EGDSLRYNYAN / QKCNRPS / SSRDSSGFQVF: 93 nM (3 of 3 replicates)

The measurements come from Engelhart et al. 2022 (doi:10.1038/s41597-022-01779-4) through the FLAb antibody collection.